Target: Prostaglandin G/H synthase 1 (Homo sapiens, UniProt P23219)
Test: Inhibition of COX1 in LPS-induced human whole blood assessed as PGE2 production

Amino acid sequences for entries named in this document (tags omitted).
UniProt P23219, whole entry: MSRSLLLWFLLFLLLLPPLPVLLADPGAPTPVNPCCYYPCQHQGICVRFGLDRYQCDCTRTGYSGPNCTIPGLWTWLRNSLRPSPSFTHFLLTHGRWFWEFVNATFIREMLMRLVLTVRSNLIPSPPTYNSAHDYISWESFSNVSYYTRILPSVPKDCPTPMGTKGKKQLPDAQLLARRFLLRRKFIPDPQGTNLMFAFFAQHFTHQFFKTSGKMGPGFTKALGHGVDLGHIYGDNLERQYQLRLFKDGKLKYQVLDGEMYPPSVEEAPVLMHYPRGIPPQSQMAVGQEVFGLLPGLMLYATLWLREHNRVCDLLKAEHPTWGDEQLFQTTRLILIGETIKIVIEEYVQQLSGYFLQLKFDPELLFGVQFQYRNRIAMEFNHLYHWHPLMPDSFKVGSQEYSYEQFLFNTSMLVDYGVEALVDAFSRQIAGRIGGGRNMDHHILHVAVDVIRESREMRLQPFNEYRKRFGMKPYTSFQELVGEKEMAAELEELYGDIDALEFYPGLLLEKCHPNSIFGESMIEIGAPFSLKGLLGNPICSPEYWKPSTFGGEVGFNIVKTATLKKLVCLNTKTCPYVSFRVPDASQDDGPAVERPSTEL

Compound Cc1onc(-c2ccccc2)c1-c1ccc(S(N)(=O)=O)cc1 [VALDECOXIB] has an IC50 of 34.3 µM.
